# Assay results: patent US5612329A (priority 1995, dated 1997)
# Test system: pBR322 DNA
# Assay: DNA Cross-Linking Assay (agarose gel)
# Format: biochemical
# Details: vs 1.0 and 2.0 μM mechlorethamine, 5.0 and 10.0 μM melphalan
compound,measurement,value
"C(CCNCCCN1CC1)CNCCCN1CC1 [Synthesis Example 1, 1,12-Diaziridinyl-4,9-diazadodecane]",cross-linking concentration compared with mechlorethamine and melphalan,"lower than that required for the two nitrogen mustard drugs, mechlorethamine and melphalan, to cross-link DNA"
